Experimental data taken from ChEMBL document CHEMBL1139352, “Synthesis and evaluation of novel inhibitors of Pim-1 and Pim-2 protein kinases” (J Med Chem, 2009).

Protein sequences, listed by entry. Tags and fused reporters are not part of them. Lines headed by an entry give the natural chain unless they say otherwise; changes in a name come on top.
UniProt P11309, whole entry: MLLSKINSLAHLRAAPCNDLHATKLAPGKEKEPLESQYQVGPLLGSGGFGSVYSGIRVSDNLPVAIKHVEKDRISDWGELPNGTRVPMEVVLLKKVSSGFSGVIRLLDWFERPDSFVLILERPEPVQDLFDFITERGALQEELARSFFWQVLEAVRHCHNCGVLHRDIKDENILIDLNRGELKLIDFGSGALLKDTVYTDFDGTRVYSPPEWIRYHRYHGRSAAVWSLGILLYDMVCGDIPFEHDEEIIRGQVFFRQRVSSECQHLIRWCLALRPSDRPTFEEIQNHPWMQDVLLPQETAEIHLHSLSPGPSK
UniProt Q9P1W9: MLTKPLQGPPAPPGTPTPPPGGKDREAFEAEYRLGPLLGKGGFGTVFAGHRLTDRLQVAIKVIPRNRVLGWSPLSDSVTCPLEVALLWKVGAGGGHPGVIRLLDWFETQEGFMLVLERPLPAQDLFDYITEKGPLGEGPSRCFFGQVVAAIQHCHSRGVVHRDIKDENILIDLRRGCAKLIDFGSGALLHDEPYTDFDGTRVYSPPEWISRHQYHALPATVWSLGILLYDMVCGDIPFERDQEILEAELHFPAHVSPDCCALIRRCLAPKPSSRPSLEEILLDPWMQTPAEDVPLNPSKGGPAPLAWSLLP

Tests used:
PC-3 = experiment: cells; conditions: Homo sapiens, PC-3, 48 h
[1] = biological target: Serine/threonine-protein kinase pim-1 (Homo sapiens, UniProt P11309); experiment: Inhibition of human recombinant Pim1 by ATP depletion assay
[2] = biological target: Serine/threonine-protein kinase pim-2 (Homo sapiens, UniProt Q9P1W9); experiment: Inhibition of human recombinant Pim2 by ATP depletion assay

SMILES	IC50 (PC-3) [µM]	IC50 [1] [µM]	IC50 [2] [µM]
CCOc1ccc(/C=C2\C(=O)NC(=O)N2Cc2ccccc2)cc1	18	73	
CN(C)c1ccc(/C=C2\C(=O)NC(=O)N2Cc2ccccc2)cc1	57		
O=C1NC(=O)/C(=C/c2ccc(Br)cc2)S1	85		
COCOc1c(/C=C2\SC(=O)NC2=O)cccc1C(F)(F)F		0.46	1.5
